The source of these data is ChEMBL document CHEMBL1143823, “Addition of a C-terminal cysteine improves the anti-herpes simplex virus activity of a peptide containing the human immunodeficiency virus type 1 TAT protein transduction domain” (Antimicrob Agents Chemother, 2007).

Structures are written as SMILES.

The subject of data set [1] is Human alphaherpesvirus 1. Nature of the data set: Inhibition of HSV1 entry in african green monkey Vero cells assessed as beta-galactosidase activity for 1 hr at 37 degC. It is filed as functional, organism-based. To be noted: Human alphaherpesvirus 1, Vero. The gist of the method: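 HSV-1 hrR3 (MOI 0.02–0.03) adsorbed to precooled Vero cells 1 h at 4°C and rinsed. Peptide added at 4°C, shifted to 37°C for 1 h of entry. Peptide rinsed off; pH 3 citrate 60 s. Lysis at 6 h, initial β-galactosidase rate (CPR-Gal, 570 nm) relative to mock, minus cycloheximide background; triplicates.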

The subject of data set [2] is Human alphaherpesvirus 1. The experiment in a line: Reduction of HSV1 entry rate in african green monkey Vero cells at 37 degC. In kind it is functional. Further details: scale not given: the % may be the effect or the level left.
For another data set, the system named is Vero. Nature of the data set: Cytotoxicity against african green monkey Vero cells by trypan blue exclusion assay. In kind it is cell-based. To be noted: chlorocebus sabaeus. An outline of the steps:
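Viability by trypan blue exclusion in Vero cells after peptide exposure.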

Data set [3] deals with Human alphaherpesvirus 1. Nature of the data set: Antiviral activity against HSV1 in african green monkey Vero cells assessed as viral inactivation after 1 hr at 37 degC. It is filed as functional, organism-based. To be noted: Human alphaherpesvirus 1, Vero. The gist of the method:
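hrR3 virions (1×10^6–6×10^6 PFU/ml) in serum-free DMEM incubated with peptide 1 h at 37°C. Free peptide removed by 1,000-fold dilution or by pelleting at 14,000 × g. Infectivity then titrated on Vero cells in triplicate by lysate β-galactosidase or X-Gal staining. EC50 from dose-response curves.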

Data set [4] has as its system Human alphaherpesvirus 1. Nature of the data set: Antiviral activity against HSV1 in african green monkey Vero cells assessed as resistance to viral infection after 1 hr at 37 degC. It is filed as functional, organism-based. To be noted: Human alphaherpesvirus 1, Vero. An outline of the steps: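 Vero monolayers exposed to peptide 1 h at 37°C, rinsed three times, infected with hrR3 (MOI 0.01) 1 h at 37°C without peptide. pH 3 citrate inactivates extracellular virus; lysate β-galactosidase (CPR-Gal, 570 nm) read 6 h later. EC50 from dose-response, triplicates per concentration.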

On to `CCCC[C@H](NC(=O)[C@H](CCCNC(=N)N)NC(=O)CN)C(=O)N[C@@H](CCCC)C(=O)N[C@@H](CCCNC(=N)N)C(=O)N[C@@H](CCCNC(=N)N)C(=O)N[C@@H](CCC(N)=O)C(=O)N[C@@H](CCCNC(=N)N)C(=O)N[C@@H](CCCNC(=N)N)C(=O)N[C@@H](CCCNC(=N)N)C(=O)N[C@@H](CS)C(=O)O`, for which the figures for the EC50 in the data set on Human alphaherpesvirus 1 [1], in the data set on Human alphaherpesvirus 1 [3] and in the data set on Human alphaherpesvirus 1 [4] were 34 µM, 900 µM and above 1200 µM, respectively. The Activity in the data set on Human alphaherpesvirus 1 [2] is listed as 60%; in the data set with Vero it was “Non-toxic”.
